Results published in PubChem BioAssay AID686952 (The Scripps Research Institute Molecular Screening Center, 2013).
Only a part is listed here, and it is no random draw. Active and inactive are the calls of the source.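 Rule for the calls: active = activation above the all-compound mean plus 3 SD, ignoring values outside control-based bounds (cut at about 4.8% in these data); inactive = the rest.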

Assay: apparent activators from fluorescence artefacts, no enzyme – biochemical, fluorescence intensity, high throughput, artefact control for kallikrein-7 zymogen activator project (AID 686952);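 note: value is the 4 h activation minus the activation read at time zero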
Conditions: EDANS-DABCYL substrate fluorescence interference, 4 h, at 7 µM, stronger effect = higher value, solvent 0%, active enzyme control 100%

SMILES	activation
Nc1ccc2c(ccc3cccnc32)n1.O=[N+]([O-])c1cc([N+](=O)[O-])c(O)c([N+](=O)[O-])c1	active: 7.53%
